Reference: patent US20150344404A1, “PDK4 INHIBITOR AND USE THEREOF” (THE KITASATO INSTITUE, priority 2012, published 2015)

The chains behind the UniProt entries cited, without tags or fusion partners.
UniProt Q16654, whole entry: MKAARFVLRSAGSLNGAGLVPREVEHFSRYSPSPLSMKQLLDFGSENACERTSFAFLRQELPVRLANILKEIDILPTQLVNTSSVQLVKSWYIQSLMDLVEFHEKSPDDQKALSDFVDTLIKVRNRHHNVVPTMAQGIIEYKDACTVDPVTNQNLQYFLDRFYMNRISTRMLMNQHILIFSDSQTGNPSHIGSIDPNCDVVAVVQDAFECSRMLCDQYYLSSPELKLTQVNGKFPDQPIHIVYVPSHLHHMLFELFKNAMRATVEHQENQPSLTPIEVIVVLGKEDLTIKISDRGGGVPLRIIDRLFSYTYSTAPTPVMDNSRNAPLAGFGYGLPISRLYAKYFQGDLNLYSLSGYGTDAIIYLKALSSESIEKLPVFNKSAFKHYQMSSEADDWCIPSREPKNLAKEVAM

Biological target: PDK4 (Homo sapiens, UniProt Q16654)
Assay: PDK4 enzyme inhibitory activity by off-chip mobility shift assay
Details: read-out: IC50, PDK inhibitory activity of representative compounds; Table 34; recombinant human PDK4, room temperature, 5 hours

Row | SMILES | IC50 [µM]
1 | O=C(O)c1ccc2c(O)ccc(O)c2c1 | 18
2 | COC(=O)c1cc2cc3c(c(O)c2c(=O)o1)OC1(CC3)Cc2c(O)c3c(c(O)c2O1)C(=O)C(OC)=CC3=O (stereo not drawn) | 9
3 | COC1=C(OC)C(=O)c2ccccc2C1=O | 9
